The text below walks through data of PubChem BioAssay AID1016 (Sanford-Burnham Center for Chemical Genomics, 2008).

Only a part is listed here, and it is no random draw. Some of these compounds have results that are not shown, active ones among them. Calls of active or inactive are those of the source.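 Rule for the calls: active = activation factor of 2 or more at 20 µM, a signal rise over negative controls twice the positive control's; inactive = the rest.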

The test system of the assay is alkaline phosphatase, intestinal [Bos taurus]. Kind of assay: bovine intestinal alkaline phosphatase activators, primary screen, biochemical, bovine IAP, CDP-star luminescence (AID 1016). To be noted: purified bovine IAP, 30 min, at 20 µM, hits give high values, fold of DMSO-control signal, blank-subtracted.
Consider `CN(C)C1CCCC1OC(=O)C(O)(c1ccccc1)c1ccccc1` (centres undefined), for which the activation factor was inactive: 1.

For `Cc1ccccc1C(=O)NCC1(N2CCCCC2)CCCCC1`, the activation factor was inactive: 1.1. Turning to `C=CCN1CCN(CCOC(=O)C(O)(c2ccccc2)c2ccccc2)CC1`, the activation factor was inactive: 1. On to `CCN1CCCC(OC(=O)C2(O)c3ccccc3C=Cc3ccccc32)C1` (centres undefined), for which the activation factor was inactive: 0.7. For `O=C(NCC1(N2CCCCC2)CCCCC1)c1cc([N+](=O)[O-])ccc1Cl`, the activation factor was inactive: 0.7. For `CC(C)N1C(=O)CC2(CCN(CCOC(=O)C(O)(c3ccccc3)c3ccccc3)CC2)C1=O`, the activation factor is inactive: 1. For `O=C(OC1CN2CCC1CC2)C(CO)(c1ccccc1)c1ccccc1` (centres undefined), the activation factor is inactive: 1. The result for `CN(C)c1cccc(C(=O)NCC2(N(C)C)CCCCC2)c1` reads inactive: 1; that for `COc1cccc(C(=O)NCC2(N3CCCCC3)CCCCC2)c1`, inactive: 1.
